Measured values from PubChem BioAssay AID504803 (The Scripps Research Institute Molecular Screening Center, 2011).
Only a part is listed here, and it is no random draw. Active and inactive are the calls of the source. Rule as the data show it: active = inhibition above about 36%; inactive = the rest.

The chains behind the UniProt entries cited, without tags or fusion partners.
UniProt Q92743, whole entry, looked up: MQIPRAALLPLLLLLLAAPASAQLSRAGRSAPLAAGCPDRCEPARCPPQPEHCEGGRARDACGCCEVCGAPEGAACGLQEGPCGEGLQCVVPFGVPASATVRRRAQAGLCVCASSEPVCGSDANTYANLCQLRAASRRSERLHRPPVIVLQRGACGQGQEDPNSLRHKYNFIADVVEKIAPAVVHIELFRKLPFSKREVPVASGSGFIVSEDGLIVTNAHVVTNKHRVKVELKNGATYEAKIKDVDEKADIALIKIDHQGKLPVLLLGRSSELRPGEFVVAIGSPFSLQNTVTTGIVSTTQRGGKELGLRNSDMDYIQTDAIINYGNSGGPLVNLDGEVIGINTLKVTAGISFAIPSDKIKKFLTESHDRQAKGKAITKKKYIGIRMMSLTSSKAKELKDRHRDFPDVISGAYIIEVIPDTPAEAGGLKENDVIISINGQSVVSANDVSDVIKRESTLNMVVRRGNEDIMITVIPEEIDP

Molecular target: Serine protease HTRA1 (Homo sapiens) (UniProt Q92743)
Test: HTRA1 serine protease inhibitors, primary screen, biochemical, fluorescence polarization, HTS (AID 504803);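 also: 0% = enzyme with DMSO and 100% = wells lacking enzyme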
Conditions: recombinant HTRA1, FP-rhodamine activity-based probe, at 5.96 µM, active compounds read high

Compound	inhibition
Clc1n[nH]nc1-c1nn[nH][15n]1	inactive: 4.74%
CC(C)(C)C(=O)NC(Sc1ncccn1)C(Cl)(Cl)Cl (stereo not drawn)	inactive: -2.48%
O=P1(Nc2ncccn2)COc2ccccc2OC1	inactive: 4.8%
Nc1cccc([As](=O)(O)c2ccccc2)c1	inactive: -1.34%
Cc1ccc(OCC(=O)OC2CN3CCC2CC3)cc1 (stereo not drawn)	inactive: -4.3%
O=[As](O)(c1cccs1)c1cccs1	inactive: 9.55%
O=P1(Nc2ccc(Br)cn2)COc2ccccc2OC1	inactive: -0.27%
NS(=O)(=O)c1cccc(NC(=O)COC(=O)C(O)(c2ccccc2)c2ccccc2)c1	inactive: -9.35%
Cc1nn(-c2ccccc2)c2c1P(=O)(N1CCOCC1)N(C)C(c1ccccc1)=N2 (stereo not drawn)	inactive: -6%
CC1CCC(C(C)C)C(OP(=O)(Nc2ccccn2)c2ccccc2)C1 (stereo not drawn)	inactive: -18.7%
Cc1ccc(C(=O)OC2CN3CCC2CC3)cc1 (stereo not drawn)	inactive: -0.07%
CN(C)C1(CNC(=O)c2ccc(S(C)(=O)=O)cc2)CCCCC1	inactive: 3.2%
O=C(/C=C/c1ccccc1)OC1CN2CCC1CC2 (stereo not drawn)	inactive: -0.15%
CCCC1OP(=O)(Nc2ccccc2)OCC1CC (stereo not drawn)	inactive: 1.47%
NC(=O)Nc1ccc([As](=O)(O)O)cc1	inactive: -2.92%
N#CCCN(C(=O)COC(=O)C(O)(c1ccccc1)c1ccccc1)c1ccc(F)cc1	inactive: -0.91%
CN(C(=O)Cc1ccccc1)[C@@H]1CC[C@]2(CCCO2)C[C@H]1N1CCCC1	inactive: 0.4%
CCOP1(=S)c2c(C)nn(CCC#N)c2N=C(c2ccc(F)cc2)N1C (stereo not drawn)	inactive: -0.06%
O=[N+]([O-])c1ccc2c(c1)nnn2O	inactive: -0.9%

Compound	inhibition
CN(C)C(=O)c1cc([N+](=O)[O-])cc2c1-c1c(cc([N+](=O)[O-])cc1[N+](=O)[O-])C2=O	active: 48.5%
CN(C(=O)Cc1ccc(Cl)c(Cl)c1)[C@H]1CC[C@@]2(CCCO2)C[C@@H]1N1CCCC1	inactive: 1.85%
CCOP1(=S)c2c(C)nn(CCC#N)c2N=C(c2ccccc2F)N1C (stereo not drawn)	inactive: -0.82%
O=P(Nc1nccs1)(Oc1ccccc1)Oc1ccccc1	inactive: -1.53%
O=P(Nc1nccs1)(c1ccccc1)c1nc2ccccc2s1 (stereo not drawn)	inactive: 9.45%
CS(=O)(=O)c1cc([N+](=O)[O-])c2no[n+]([O-])c2c1	inactive: 12.2%
Nc1ccccc1[As](=O)(O)c1ccccc1	inactive: 1.57%
O=C(O)COc1ccc([As](=O)(O)O)cc1[N+](=O)[O-]	inactive: -1.71%
Cc1ccc(NCCc2c([N+](=O)[O-])cc([N+](=O)[O-])cc2[N+](=O)[O-])cc1	active: 43.3%
Nc1cccc2c([As](=O)(O)O)cccc12	active: 59.9%
CCCOP(=S)(Nc1nc(N)cc(=O)[nH]1)OCCC	inactive: 3.68%
COc1cc(C2NCCC3(OCCO3)C2(C)C)cc(OC)c1OC (stereo not drawn)	inactive: -2.05%
CCOP(=O)(Nc1cccc2ccccc12)OCC	inactive: 1.84%
O=C(OC1CN2CCC1CC2)c1ccc(Cl)cc1 (stereo not drawn)	inactive: 3.97%
O=[As](O)(O)c1cccnc1	inactive: -8.45%
COc1cc(C(=O)NCC2(N3CCOCC3)CCCCC2)cc(Cl)c1OC(C)C	inactive: -3.96%
CS(=O)(=O)c1ccc(Cl)c(NC(=O)COC(=O)C(O)(c2ccccc2)c2ccccc2)c1	inactive: -8.23%
Cc1cccc(OCC(=O)OC2CN3CCC2CC3)c1 (stereo not drawn)	inactive: -2.4%
O=[As](O)(c1cccc(O)c1)c1cccc(O)c1	inactive: 3.96%
